This is an account of results in patent US11174301B2 (Takeda Pharmaceutical Company Limited, priority 2017, dated 2021).

Chains of the proteins cited; added tags and fusions are not shown. Residues count along the entry.
UniProt P43220, 24-463: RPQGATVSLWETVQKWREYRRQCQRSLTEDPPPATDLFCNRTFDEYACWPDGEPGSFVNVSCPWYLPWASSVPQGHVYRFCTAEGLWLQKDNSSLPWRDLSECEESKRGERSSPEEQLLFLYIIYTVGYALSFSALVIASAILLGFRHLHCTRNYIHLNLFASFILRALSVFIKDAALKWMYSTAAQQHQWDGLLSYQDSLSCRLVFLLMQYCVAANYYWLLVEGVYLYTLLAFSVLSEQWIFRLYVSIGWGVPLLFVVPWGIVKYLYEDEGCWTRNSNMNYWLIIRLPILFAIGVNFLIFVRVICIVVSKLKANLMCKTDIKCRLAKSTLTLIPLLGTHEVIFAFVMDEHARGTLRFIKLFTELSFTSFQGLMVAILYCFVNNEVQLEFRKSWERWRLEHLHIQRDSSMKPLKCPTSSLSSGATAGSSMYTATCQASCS

The subject of one data set is beagles. Briefly: PYY-1119-induced vomiting in dogs. Type of data set: in vivo. To be noted: PYY-1119 10 μg/kg [about 5 nmol/kg] s.c. alone, 2-hour observation, FIG. 7A.
The target in data set [1] is T1, human GIPR (Homo sapiens, UniProt P48546).
T1 construct: expressed in transfected cells; host or cells: CHO-K1 (CRE-LUC/CHO-K1 reporter cell; hGIPR/CRE-LUC/CHO-K1 line)
T1 sequence (P48546 22-466): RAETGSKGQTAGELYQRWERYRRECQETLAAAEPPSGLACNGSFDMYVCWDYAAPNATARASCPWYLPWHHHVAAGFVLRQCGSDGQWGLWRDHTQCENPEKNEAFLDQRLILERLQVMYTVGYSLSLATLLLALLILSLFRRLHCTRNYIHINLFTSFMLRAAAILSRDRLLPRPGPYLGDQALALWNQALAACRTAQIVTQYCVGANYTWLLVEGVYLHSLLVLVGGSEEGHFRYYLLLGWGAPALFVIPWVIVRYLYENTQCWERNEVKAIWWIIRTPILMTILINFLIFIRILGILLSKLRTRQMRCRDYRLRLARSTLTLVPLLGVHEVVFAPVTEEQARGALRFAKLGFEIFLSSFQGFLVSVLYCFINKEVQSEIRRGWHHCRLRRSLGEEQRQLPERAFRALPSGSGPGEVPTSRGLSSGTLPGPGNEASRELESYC
As to the kind of experiment: Binding activity to human GIPR using [125I]-GIP (GIPR_VLP). The settings on record: [125I]GIP 100 pM, room temperature 2 hours. Here is the method:
The GF/C glass fiber filter 96-well plate in which VLP was trapped was dried at 42° C. overnight. Thereafter, MicroScint-O (PerkinElmer 6013611) was added to the GF/C glass fiber filter 96-well plate sealed using a backseal and the plate was sealed using a topseal.

Data set [2] can be described thus: Plasma levels in ferrets of the vomiting tests. The format is in vivo. The settings on record: for Plasma level 4 hours after administration: 30 nmol/kg s.c.; for Plasma level 120 hours after administration: 144 μg/kg (30 nmol/kg) s.c.; for Plasma level at the test completion: cisplatin test. Here is the method:
The ferret test was carried out by Nissei Bilis Co., Ltd. (Shiga prefecture, Japan). Cisplatin (10 mg/kg i.p.) was administered to male ferrets (10-week-old, n=6) to induce acute vomiting. […] The frequency of emesis (feeling queasy, vomiting) was monitored over a period of 8 hours after cisplatin administration.
[…]. At the time of each of 4 hours, or 120 hours after administration, 0.6 mg/kg of morphine was subcutaneously administered. Up to 60 minutes after morphine administration, the condition of the ferrets was monitored to record the frequencies and time points of abdominal contraction motions, vomiting behaviors, licking with the tongue, and fidgety behavior occurring.

The target of data set [3] is T1, human GIPR. Briefly: Agonist activity on human GIPR, CRE-luciferase reporter assay with increase in intracellular cAMP as indicator. Type of data set: cell-based. The settings on record: hGIPR/CRE-LUC/CHO-K1 cells, 4 hours incubation, 10 nM GIP = 100%. Here is the method:
(2) Construction of Reporter Plasmid Expressing Cell
(4) Transfer of Human GIPR Gene to CRE-LUC/CHO-K1 Cell and Obtaining of Expressing Cell
Subsequently, the cell line inducing the luciferase expression, hGIPR/CRE-LUC/CHO-K1 cell, was selected from the obtained transformant by adding GIP.
(§1) Steady-Glo (Promega) was added in amounts of 30 μL and shaken under light shielding. 20 Minutes later, luciferase activity was measured using a plate reader Envision (PerkinElmer).

The next data set deals with T2, human GLP-1R (Homo sapiens, UniProt P43220).
T2 construct: expressed in transfected cells; host or cells: CHO-K1 (hGLP-1R/CRE-luc/CHO-K1 line)
Briefly: Agonist activity on human GLP-1R, CRE-luciferase reporter assay with increase in intracellular cAMP as indicator. Type of data set: cell-based. To be noted: hGLP-1R/CRE-luc/CHO-K1 cells, 4 hours incubation, 10 nM GLP-1 = 100%.
Description: (3) Construction of Reporter Plasmid
(5) Construction of Expression Plasmid of Human GLP-1R Gene
(6) Transfer of Human GLP-1R Gene and Reporter Plasmid to CHO-K1 Cell and Obtaining of Expressing Cell
The Cre-luc (Zeo) obtained in (3) and the plasmid hGLP-1/pIRESneo3 obtained in (5) were transferred to the CHO-K1 cell to obtain a transformant. Subsequently, the cell line inducing the luciferase expression, hGLP-1R/CRE-luc/CHO-K1 cell, was selected from the obtained transformant by adding GLP-1.
as §1

Consider “4-imidazolecarbonyl-Ser-D-Hyp-Iva-Pya(4)-Cha-Leu(Me)-Asn-Lys-Aib-Thr-Arg-Gln-Arg-Cha-NH2 [PYY-1119, reference compound]”, for which the “Frequency of vomiting, PYY-1119 alone” value in the data set on beagles is reported as 6 to 28 times.

As for “H-MeTyr-Aib-Glu-Gly-Thr-Iva-Ile-Ser-Asp-Tyr-Ser-Ile-Aib-Leu-Asp-Arg-Lys(Oda-GGGGG-)-Ala-Gln-Aib-Asn-Phe-Val-Asn-Trp-Iva-Leu-Ala-Gln-Arg-Pro-Ser-Ser-Gly-Ala-Pro-Pro-Pro-Ser-NH2 [Compound 349]”, the half-maximal inhibitory concentration (IC50) at human GIPR [1] is 4.2 nM. For the same substance, in data set [2], the “Plasma level 4 hours after administration” value was found to be 143.4 nM and the “Plasma level 120 hours after administration” value was 43.3 nM. Also, on human GIPR [3], a half-maximal response (EC50) required 0.019 nM. This substance also yielded an EC50 at human GLP-1R of more than 1000 nM.

Take “H-MeTyr-Aib-Glu-Gly-Thr-Iva-Ile-Ser-Asp-Tyr-Ser-Ile-Aib-Lys(Eda-GGGGG-)-Asp-Arg-Aib-Ala-Gln-Aib-Asn-Phe-Val-Asn-Trp-Iva-Leu-Ala-Gln-Arg-Pro-Ser-Ser-Gly-Ala-Pro-Pro-Pro-Ser-NH2 [Compound 341]”: at human GIPR [1], the IC50 was found to be 16 nM. In addition, in data set [2], the “Plasma level 4 hours after administration” value came out at 154.0 nM and the “Plasma level 120 hours after administration” value stood at 82.3 nM. In addition, the response on human GIPR [3] was half-maximal at 0.048 nM (EC50). This substance also came in with an EC50 on human GLP-1R of more than 1000 nM.

Regarding “H-Tyr-Aib-Glu-Gly-Thr-Val-Val-Ser-Leu-Tyr-Ser-Ile-Aib-Leu-Asp-Lys-Gln-Ala-Gln-Aib-Glu-Phe-Val-Lys-Trp-Leu-Leu-Lys-Gly-Gly-Pro-Ser-Ser-Gly-Ala-Pro-Pro-Pro-Ser-Lys-NH2 [Compound 6]”, the IC50 on human GIPR [1] was found to be 2.5 nM. The “Plasma level at the test completion” value in data set [2] (16.7 nmol/kg/hour subcutaneous) was found to be 133.4 nM; in data set [2] (167 nmol/kg/hour subcutaneous), 392.7 nM. The EC50 at human GIPR [3] was 0.0068 nM; at human GLP-1R it was more than 1000 nM.

At human GIPR [1], “Me-Tyr-Aib-Glu-Gly-Thr-Iva-Ile-Ser-Asp-Tyr-Ser-Ile-Aib-Lys(Oda-GGGGGG-)-Asp-Arg-Aib-His-Gln-Aib-Asn-Phe-Val-Asn-Trp-Iva-Leu-Ala-Gln-Arg-Pro-Ser-Ser-Gly-Ala-Pro-Pro-Pro-Ser-NH2 [Compound 484]” registered an IC50 of 10 nM. Moreover, the EC50 on human GIPR [3] is 0.026 nM; at human GLP-1R, more than 1000 nM.

With “Methyl-Tyr-Aib-Glu-Gly-Thr-Iva-Ile-Ser-Asp-Tyr-Ser-Ile-Aib-Leu-Asp-Arg-Aib-Ala-Gln-Aib-Asn-Phe-Val-Asn-Trp-Iva-Leu-Ala-Gln-Arg-Pro-Ser-Ser-Gly-Ala-Pro-Pro-Pro-Ser-Arg-NH2 [Compound 113]”, the IC50 on human GIPR [1] worked out at 1.9 nM. The values for the EC50 on human GIPR [3] and at human GLP-1R were 0.0012 nM and more than 1000 nM, respectively.

Turning to “Methyl-Tyr-Aib-Glu-Gly-Thr-Iva-Ile-Ser-Asp-Tyr-Ser-Ile-Ala-Leu-Asp-Arg-Aib-Ala-Gln-Aib-Asn-Phe-Val-Asn-Trp-Leu-Leu-Ala-Gln-Arg-Pro-Ser-Ser-Gly-Ala-Pro-Pro-Pro-Ser-Arg-NH2 [Compound 104]”, the IC50 on human GIPR [1] amounted to 1.5 nM. Moreover, the 50% effective concentration (EC50) on human GIPR [3] is 0.0014 nM; on human GLP-1R it was more than 1000 nM.

The substance “Methyl-Tyr-Aib-Glu-Gly-Thr-Phe-Ile-Ser-Asp-Tyr-Ser-Ile-Ala-Leu-Asp-Arg-Aib-His-Gln-Aib-Asn-Phe-Val-Asn-Trp-Iva-Leu-Ala-Gln-Arg-Pro-Ser-Ser-Gly-Ala-Pro-Pro-Pro-Ser-Arg-NH2 [Compound 117]” had an IC50 at human GIPR [1] of 5.2 nM. Also, the 50% effective concentration (EC50) at human GIPR [3] is 0.0017 nM; on human GLP-1R it was more than 1000 nM.
